The values below come from patent US9605022B2, “Macrocyclic compounds for inhibition of inhibitors of apoptosis” (Ensemble Therapeutics Corporation, priority 2012, dated 2017).

Chains of the proteins cited; added tags and fusions are not shown. Lines headed by an entry give the natural chain unless they say otherwise; changes in a name come on top. Residues count along the entry.
UniProt P98170, 241-356 limits assumed: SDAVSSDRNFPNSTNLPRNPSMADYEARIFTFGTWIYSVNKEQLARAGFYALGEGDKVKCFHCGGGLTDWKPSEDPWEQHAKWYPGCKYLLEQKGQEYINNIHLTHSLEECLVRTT
UniProt P98170, 125-356 C202A/C213G limits assumed: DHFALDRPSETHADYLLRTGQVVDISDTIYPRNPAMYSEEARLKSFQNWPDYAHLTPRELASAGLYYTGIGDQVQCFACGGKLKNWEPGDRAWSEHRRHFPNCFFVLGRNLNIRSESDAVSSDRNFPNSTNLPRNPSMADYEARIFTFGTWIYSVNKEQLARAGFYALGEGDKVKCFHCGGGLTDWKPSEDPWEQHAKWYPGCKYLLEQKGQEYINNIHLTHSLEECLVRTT

Where two headings read alike, the source gives them in different places.

In assay [1] the target is XIAP BIR3 (His-BIR3 (241-356, XIAP)) (Homo sapiens (Human), UniProt P98170). Nature of the assay: XIAP-BIR3/SMAC Homogeneous Time Resolved Fluorescence (HTRF) Assay. To be noted: read-out: XIAP BIR3 FRET IC50, 1 nM N-His-BIR3, 5 nM fluorescein labeled SMAC peptide. As for the experimental part:
Assays were performed in black, flat-bottom, 384-well plates. The final assay volume was 50 μL prepared from additions of His-BIR3 (241-356, XIAP), fluorescein labeled SMAC peptide, and test compounds in assay buffer consisting of 20 mM Sodium Phosphate, 1 mM EDTA, 50 mM NaCl, 50 μg/ml BSA, and 0.05% Pluronic F68. The reaction was incubated at room temperature for 60 minutes, following which 10 μl of mouse anti-6xHis-terbium labeled Fab (Medarex, Cis-bio) was added to the reaction (40 IA for an additional 30 minute incubation. The HTRF signal, ratio of fluorescence intensities at emission wavelengths for fluorescein acceptor (520 nm) and terbium donor (615 nm), the 520/615 ratio, generated by the reaction was then measured on the Envision Plate Reader Inhibition data were calculated from the 520/615 ratio generated by the no protein control reactions for 100% inhibition and vehicle-only reactions for 0% inhibition. The final concentration of reagents in the assay was 1 nM N-His-BIR3(241-356, XIAP), 5 nM fluorescein labeled SMAC peptide, 0.25 nM anti-His-Tb-Fab, and 0.1% DMSO. Dose response curves were generated to determine the concentration required for inhibiting 50% of the HTRF signal (IC50). Compounds were dissolved at 3 mM in dimethylsulfoxide (DMSO) and evaluated at eleven serially diluted concentrations. IC50 and Ki values were derived by non-linear regression analysis.

For assay [2], the target named is XIAP BIR2-3 (His-BIR2-3 (125-356, C202A/C213G, XIAP)) (Homo sapiens (Human), UniProt P98170, C202A/C213G). Kind of assay: XIAP-BIR2-3 Dimeric SMAC Peptide Homogeneous Time Resolved Fluorescence (HTRF) Assay. To be noted: read-out: XIAP BIR2-3 FRET IC50; 0.5 nM N-His-BIR2-3, 20 nM fluorescein labeled dimeric SMAC peptide. As for the experimental part: Assays were performed in black, flat-bottom, 384-well plates. The final assay volume was 50 μL prepared from additions of His-BIR2-3 (125-356, C202A/C213G, XIAP), fluorescein labeled dimeric SMAC peptide, and test compounds in assay buffer consisting of 20 mM Sodium Phosphate, 1 mM EDTA, 50 mM NaCl, 50 μg/ml BSA, and 0.05% Pluronic F68. The reaction was incubated at room temperature for 60 minutes, following which 10 μl of mouse anti-6xHis-Tb IgG (Medarex, Cis-bio) was added to the reaction (40 μl) for an additional 30 minute incubation. The HTRF signal, ratio of fluorescence intensities at emission wavelengths for fluorescein acceptor (520 nm) and terbium donor (615 nm), the 520/615 ratio, generated by the reaction was then measured on the Envision Plate Reader. Inhibition data were calculated from the 520/615 ratio generated by the no protein control reactions for 100% inhibition and vehicle-only reactions for 0% inhibition. The final concentration of reagents in the assay was 0.5 nM N-His-BIR2-3(125-356, C202A/C213G, XIAP), 20 nM fluorescein labeled dimeric SMAC peptide, 0.25 nM anti-His-Tb-Fab, and 0.1% DMSO. Dose response curves were generated to determine the concentration required for inhibiting 50% of the HTRF signal (IC50). Compounds were dissolved at 3 mM in dimethylsulfoxide (DMSO) and evaluated at eleven serially diluted concentrations. […]

For the compound `CN[C@@H](C)C(=O)N[C@H](C(=O)N1CC[C@@H]2[C@H]1C(=O)N[C@@H](Cc1ccc3ccccc3c1)C(=O)N[C@H](C(=O)O)Cc1ccc(cc1)OCc1cn(nn1)[C@@H]1CCN(C(=O)[C@@H](NC(=O)[C@H](C)NC)C(C)(C)C)[C@@H]1C(=O)N[C@@H](Cc1ccc3ccccc3c1)C(=O)N[C@H](C(=O)NCc1cc(F)c(O)c(F)c1)Cc1ccc(cc1)OCc1cn2nn1)C(C)(C)C`, the values for the IC50 in assay [1] and in assay [2] were 9.1 nM and 1.2 nM, respectively.

As to `CNC(C)C(=O)NC(C(=O)N1CCC2OCc3cn(nn3)CCC(C(=O)O)NC(=O)C(Cc3ccc4ccccc4c3)NC(=O)C3C(CCN3C(=O)C(NC(=O)C(C)NC)C(C)(C)C)OCc3cn(nn3)CCC(C(=O)O)NC(=O)C(Cc3ccc4ccccc4c3)NC(=O)C21)C(C)(C)C` (stereo not drawn), the half-inhibitory concentration (IC50) in assay [1] (tested form: TFA salt) is 16.5 nM.

What is called IC50 is the concentration needed to halve the response being measured.
